16 molecules from patent US20090099157A1, “TETRAHYDRO-PYRAZOLO-PYRIDINE THIOETHER MODULATORS OF CATHEPSIN S” (priority 2007, published 2009) can be followed below.

By UniProt entry, the sequences of proteins in these tests, tags left out. Residues count along the entry.
UniProt P25774, 115-331: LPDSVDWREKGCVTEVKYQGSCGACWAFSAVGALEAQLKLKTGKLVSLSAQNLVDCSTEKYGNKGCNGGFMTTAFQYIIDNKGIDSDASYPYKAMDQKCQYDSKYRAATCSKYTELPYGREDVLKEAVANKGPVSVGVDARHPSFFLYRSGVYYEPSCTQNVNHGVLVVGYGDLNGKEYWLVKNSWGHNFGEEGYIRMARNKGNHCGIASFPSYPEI

Molecules are shown by their SMILES.

The assay deals with Recombinant human cathepsin S (CatS) (Homo sapiens, UniProt P25774). Description: biochemical.

Regarding `CS(=O)(=O)N1CCc2c(c(-c3ccc(C(F)(F)F)c(SCCN4CCCCC4)c3)nn2CC(O)CN2CCC(C(=O)N3CCCC3)CC2)C1` (stereo not shown) [Example 745, 1-[5-(Methylsulfonyl)-3-{3-[(2-piperidin-1-ylethyl)sulfanyl]-4-(trifluoromethyl)phenyl}-4,5,6,7-tetrahydro-1H-pyrazolo[4,3-c]pyridin-1-yl]-3-[4-(pyrrolidin-1-ylcarbonyl)piperidin-1-yl]propan-2-ol], the IC50 turned out to be 90 nM.
In the case of `CCCSc1cc(-c2nn(CCCN3CCOCC3)c3c2CN(S(C)(=O)=O)CC3)ccc1Cl` [Example 132, 3-(4-Chloro-3-propylsulfanyl-phenyl)-5-methanesulfonyl-1-(3-morpholin-4-yl-propyl)-4,5,6,7-tetrahydro-1H-pyrazolo[4,3-c]pyridine] it was 3600 nM.
As for `CC(=O)N1CCC[C@H]1C(=O)N1CCc2c(c(-c3ccc(C(F)(F)F)c(SCCN4CCC(F)CC4)c3)nn2CC(O)CN2CCCCC2)C1` (stereo partly drawn) [Example 672, 1-{5-(1-Acetyl-L-prolyl)-3-[3-{[2-(4-fluoropiperidin-1-yl)ethyl]sulfanyl}-4-(trifluoromethyl)phenyl]-4,5,6,7-tetrahydro-1H-pyrazolo[4,3-c]pyridin-1-yl}-3-piperidin-1-ylpropan-2-ol], the IC50 is 1340 nM.
To `CS(=O)(=O)N1CCc2c(c(-c3ccc(C(F)(F)F)c(SCCN4CCOCC4)c3)nn2CC(O)CN2CCC(c3ccncc3)CC2)C1` (stereo not shown) [Example 664, 1-[5-(Methylsulfonyl)-3-{3-[(2-morpholin-4-ylethyl)sulfanyl]-4-(trifluoromethyl)phenyl}-4,5,6,7-tetrahydro-1H-pyrazolo[4,3-c]pyridin-1-yl]-3-(4-pyridin-4-ylpiperidin-1-yl)propan-2-ol] belongs 65 nM; to `C[C@H]1COCCN1CC(O)Cn1nc(-c2ccc(C(F)(F)F)c(SCC(=O)N3CCOCC3)c2)c2c1CCN(S(C)(=O)=O)C2` (stereo partly drawn) [Example 466, 1-[(3S)-3-Methylmorpholin-4-yl]-3-[5-(methylsulfonyl)-3-{3-[(2-morpholin-4-yl-2-oxoethyl)sulfanyl]-4-(trifluoromethyl)phenyl}-4,5,6,7-tetrahydro-1H-pyrazolo[4,3-c]pyridin-1-yl]propan-2-ol], 300 nM; to `CC1CCN(CCSc2cc(-c3nn(CCCN4CCC(N5CCCC5=O)CC4)c4c3CN(S(C)(=O)=O)CC4)ccc2C(F)(F)F)CC1` [Example 10, 1-{1-[3-(5-Methanesulfonyl-3-{3-[2-(4-methyl-piperidin-1-yl)-ethylsulfanyl]-4-trifluoromethyl-phenyl}-4,5,6,7-tetrahydro-pyrazolo[4,3-c]pyridin-1-yl)-propyl]-piperidin-4-yl}-pyrrolidin-2-one], 110 nM.
As to `CC1CCN(CCSc2cc(-c3nn(C[C@@H](O)CN4CCCCC4)c4c3CN(C(=O)C(N)=O)CC4)ccc2C(F)(F)F)CC1` [Example 359, 2-{1-[(2S)-2-Hydroxy-3-piperidin-1-ylpropyl]-3-[3-{[2-(4-methylpiperidin-1-yl)ethyl]sulfanyl}-4-(trifluoromethyl)phenyl]-1,4,6,7-tetrahydro-5H-pyrazolo[4,3-c]pyridin-5-yl}-2-oxoacetamide], the IC50 stood at 140 nM.
`CS(=O)(=O)N1CCc2c(c(-c3ccc(C(F)(F)F)c(SCC(=O)N4CCOCC4)c3)nn2CC(O)CN2CCC(N3CC(O)CC3=O)CC2)C1` (stereo not shown) [Example 814, 4-Hydroxy-1-(1-{2-hydroxy-3-[5-(methylsulfonyl)-3-{3-[(2-morpholin-4-yl-2-oxoethyl)sulfanyl]-4-(trifluoromethyl)phenyl}-4,5,6,7-tetrahydro-1H-pyrazolo[4,3-c]pyridin-1-yl]propyl}piperidin-4-yl)pyrrolidin-2-one]: the IC50 came to 30 nM.
To `CS(=O)(=O)N1CCc2c(c(-c3ccc(C(F)(F)F)c(SCCN4CCCCC4)c3)nn2CC(O)CN2CCC(Oc3ccccn3)CC2)C1` (stereo not shown) [Example 717, 1-[5-(Methylsulfonyl)-3-{3-[(2-piperidin-1-ylethyl)sulfanyl]-4-(trifluoromethyl)phenyl}-4,5,6,7-tetrahydro-1H-pyrazolo[4,3-c]pyridin-1-yl]-3-[4-(pyridin-2-yloxy)piperidin-1-yl]propan-2-ol] belongs 60 nM; to `N#Cc1cccc(C2CCN(CC(O)Cn3nc(-c4ccc(C(F)(F)F)c(SCCN5CCCCC5)c4)c4c3CCNC4)CC2)c1` (stereo not shown) [Example 426, 3-{1-[2-Hydroxy-3-(3-{3-[(2-piperidin-1-ylethyl)sulfanyl]-4-(trifluoromethyl)phenyl}-4,5,6,7-tetrahydro-1H-pyrazolo[4,3-c]pyridin-1-yl)propyl]piperidin-4-yl}benzonitrile], 270 nM.
`C[C@H]1COCCN1CC(O)Cn1nc(-c2ccc(C(F)(F)F)c(SCCN3CCCC3)c2)c2c1CCN(S(C)(=O)=O)C2` (stereo partly drawn) [Example 351, 1-[(3S)-3-Methylmorpholin-4-yl]-3-[5-(methylsulfonyl)-3-{3-[(2-pyrrolidin-1-ylethyl)sulfanyl]-4-(trifluoromethyl)phenyl}-4,5,6,7-tetrahydro-1H-pyrazolo[4,3-c]pyridin-1-yl]propan-2-ol]: the IC50 is 780 nM.
To `CC(=O)N1CCN(CCSc2cc(-c3nn(CC(O)CN4CCN(C5CC5)CC4)c4c3CN(S(C)(=O)=O)CC4)ccc2C(F)(F)F)CC1` (stereo not shown) [Example 682, 1-{3-[3-{[2-(4-Acetylpiperazin-1-yl)ethyl]sulfanyl}-4-(trifluoromethyl)phenyl]-5-(methylsulfonyl)-4,5,6,7-tetrahydro-1H-pyrazolo[4,3-c]pyridin-1-yl}-3-(4-cyclopropylpiperazin-1-yl)propan-2-ol] belongs 1030 nM; to `OC(CN1CCN(c2cccc(C(F)(F)F)c2)CC1)Cn1nc(-c2ccc(C(F)(F)F)c(SCCN3CCCCC3)c2)c2c1CCNC2` (stereo not shown) [Example 634, 1-(3-{3-[(2-Piperidin-1-ylethyl)sulfanyl]-4-(trifluoromethyl)phenyl}-4,5,6,7-tetrahydro-1H-pyrazolo[4,3-c]pyridin-1-yl)-3-{4-[3-(trifluoromethyl)phenyl]piperazin-1-yl}propan-2-ol], 510 nM.
As for `OC(CN1CCC(c2ccccn2)CC1)Cn1nc(-c2ccc(C(F)(F)F)c(SCCN3CCC(F)CC3)c2)c2c1CCNC2` (stereo not shown) [Example 232, 1-{3-[3-{[2-(4-Fluoropiperidin-1-yl)ethyl]sulfanyl}-4-(trifluoromethyl)phenyl]-4,5,6,7-tetrahydro-1H-pyrazolo[4,3-c]pyridin-1-yl}-3-(4-pyridin-2-ylpiperidin-1-yl)propan-2-ol], the half-inhibitory concentration (IC50) turned out to be 160 nM.
Turning to `CS(=O)(=O)N1CCc2c(c(-c3ccc(C(F)(F)F)c(SCCN4CCCC(CO)C4)c3)nn2CC(O)CN2CCN(c3ccccc3O)CC2)C1` (stereo not shown) [Example 838, 2-[4-(2-Hydroxy-3-{3-[3-({2-[3-(hydroxymethyl)piperidin-1-yl]ethyl}sulfanyl)-4-(trifluoromethyl)phenyl]-5-(methylsulfonyl)-4,5,6,7-tetrahydro-1H-pyrazolo[4,3-c]pyridin-1-yl}propyl)piperazin-1-yl]phenol], the IC50 is 45 nM.
To `CC1(C)CCN(CC(O)Cn2nc(-c3ccc(C(F)(F)F)c(SCCN4CCC(F)CC4)c3)c3c2CCN(S(C)(=O)=O)C3)CC1` (stereo not shown) [Example 562, 1-(4,4-Dimethylpiperidin-1-yl)-3-{3-[3-{[2-(4-fluoropiperidin-1-yl)ethyl]sulfanyl}-4-(trifluoromethyl)phenyl]-5-(methylsulfonyl)-4,5,6,7-tetrahydro-1H-pyrazolo[4,3-c]pyridin-1-yl}propan-2-ol] belongs 220 nM.
